The target of this experiment is active mouse PAI-1 (Mus musculus (Mouse), UniProt P22777). In words: Ex vivo plasma Luminex assay, mouse plasma spiked with active mouse PAI-1. As to conditions: mouse plasma spiked with active mouse PAI-1 3-4 ng/mL. The experiment is classed as biochemical.

By UniProt entry, the sequences of proteins in these tests, tags left out. Residues count along the entry.
UniProt P22777, 23-402: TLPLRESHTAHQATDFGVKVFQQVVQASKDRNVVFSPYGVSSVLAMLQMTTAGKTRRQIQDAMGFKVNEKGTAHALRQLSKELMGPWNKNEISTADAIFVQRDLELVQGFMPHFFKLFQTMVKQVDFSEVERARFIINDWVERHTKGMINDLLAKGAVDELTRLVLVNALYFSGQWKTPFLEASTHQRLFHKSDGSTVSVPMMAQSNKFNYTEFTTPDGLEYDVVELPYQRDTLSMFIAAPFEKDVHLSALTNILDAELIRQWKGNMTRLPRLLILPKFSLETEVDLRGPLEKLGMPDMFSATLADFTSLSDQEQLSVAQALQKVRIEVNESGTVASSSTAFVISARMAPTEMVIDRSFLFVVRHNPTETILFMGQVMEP

The text below walks through data of patent US9120744B2, “Plasminogen activator inhibitor-1 inhibitors and methods of use thereof to modulate lipid metabolism” (THE REGENTS OF THE UNIVERSITY OF MICHIGAN, priority 2007, dated 2015).

Structures are written as SMILES. pIC50: −log10 of the molar value.

In general, pIC50 refers to the negative decadic logarithm of the IC50, by convention in mol/L. A lower pIC50 goes with a high IC50.

With `O=C(OC[C@H]1O[C@@H](OC(=O)c2cc(O)c(O)c(O)c2)[C@H](OC(=O)c2cc(O)c(O)c(O)c2)[C@@H](OC(=O)c2cc(O)c(O)c(O)c2)[C@H]1OC(=O)c1cc(O)c(O)c(O)c1)c1cc(O)c(O)c(O)c1` [CDE-004], the pIC50 is 3.88.
For `O=C(OC[C@H]1OC(OC(=O)c2cc(O)c(O)c(O)c2)[C@H](OC(=O)c2cc(O)c(O)c(O)c2)[C@@H](OC(=O)c2cc(O)c(O)c(O)c2)[C@@H]1OC(=O)c1cc(O)c(O)c(O)c1)c1cc(O)c(O)c(O)c1` (some centres unmarked) [CDE-001] the value was 4.09.
Turning to `O=C(OC[C@H]1OC(OC(=O)c2cc(O)c(O)c(O)c2)[C@H](OC(=O)c2cc(O)c(O)c(O)c2)[C@@H](OC(=O)c2cc(O)c(O)c(O)c2)[C@H]1OC(=O)c1cc(O)c(O)c(O)c1)c1cc(O)c(O)c(O)c1` (some centres unmarked) [CDE-066], the pIC50 is 4.20. The pIC50 values of the last two compounds are within 0.2 log units of each other.
With `O=C(OC[C@H]1O[C@@H](OC(=O)c2cc(O)c(O)c(O)c2)[C@@H](OC(=O)c2cc(O)c(O)c(O)c2)[C@@H](OC(=O)c2cc(O)c(O)c(O)c2)[C@@H]1OC(=O)c1cc(O)c(O)c(O)c1)c1cc(O)c(O)c(O)c1` [CDE-002], the pIC50 is 3.91.
In turn, `O=C(OC[C@H]1O[C@H](OC(=O)c2cc(O)c(O)c(O)c2)[C@H](OC(=O)c2cc(O)c(O)c(O)c2)[C@@H](OC(=O)c2cc(O)c(O)c(O)c2)[C@H]1OC(=O)c1cc(O)c(O)c(O)c1)c1cc(O)c(O)c(O)c1` [CDE-003] gave a pIC50 of 4.00. The pIC50 values of the last two compounds are within 0.2 log units of each other.
